Literature values, collected in patent US20040228921A1, “Compositions and methods for delivery of therapeutic agents” (priority 2003, published 2004).
≈ marks a conversion by molar mass, not a printed value. Some compounds may have been tested in ways that are not shown here.

Settings: printed as 1000 mg/40 mL=25 mg/mL; solvent not stated

For CCC(=O)N(c1ccccc1)C1CCN(CCc2ccccc2)CC1, the Solubility is given as 25 mg/mL (≈ 74.3 mM).
